Test: Vasorelaxant activity in pig pulmonary artery by organ bath experiment
For `O=[N+]([O-])OCC(CO[N+](=O)[O-])(CO[N+](=O)[O-])CO[N+](=O)[O-]`, the EC50 was 7 nM. Work on `O=[N+]([O-])OCC(CO)(CO[N+](=O)[O-])CO[N+](=O)[O-]` yielded an EC50 of 30 nM. In the case of `O=[N+]([O-])OCC(CO)O[N+](=O)[O-]` (centres undefined), the EC50 is reported as 1930 nM. Compound `O=[N+]([O-])OCC(O)CO[N+](=O)[O-]` has an EC50 of 523 nM.
